From patent US20230390283A1, “USES OF CHK2 INHIBITORS” (The University of Birmingham, priority 2020, published 2023)

What was measured:
[1] = system: clip compression (CC) model of SCI; experiment: Clip compression model of severe SCI: horizontal ladder crossing test; format: in vivo, rat; conditions: all doses (2, 0.2, 0.02 μg), vs Vehicle or Chk1i
Procedure: Horizontal ladder test: This tests the animals locomotor function and is performed on a 0.9-meter-long horizontal ladder with a diameter of 15.5 cm and randomly adjusted rungs with variable gaps of 3.5-5.0 cm. The total number of steps taken to cross the ladder and the left and right rear paw slips being were recorded and the mean error rate was then calculated by dividing the number of slips by the total number of steps taken.

[2] = system: clip compression (CC) model of SCI; experiment: Clip compression model of severe SCI: BBB scores; format: in vivo, rat; conditions: all doses (2, 0.2, 0.02 μg), vs Vehicle or Chk1i

SMILES: COc1cccc(OCCCN)c1-c1cc(Nc2cnc(C#N)cn2)n[nH]1 [Prexasertib]
- horizontal ladder crossing, footslips [1]: significantly fewer footslips; also recorded: fewer hindlimbs footslips
- BBB scores [2]: improve significantly; also recorded: significant improvements

“Also recorded” adds a separate entry of the source.
